Test results reported in patent US20070203233A1, “NOVEL 2-(alpha-N-PENTANONYL)BENZOATES, THEIR PREPARATION AND USE” (priority 2004, published 2007).

Test system: ICR mice
Conditions: oral gavage, observed 7 days, method of Bliss

## CCCCC1OC(=O)c2ccccc21 (racemic) [DL-3-n-butylphthalide]
  LD50 value: 2186.1 mg/kg
